PubChem BioAssay AID746 (The Scripps Research Institute Molecular Screening Center, 2007)
Only a part is listed here, and it is no random draw. Calls of active or inactive are those of the source. Rule as the data show it: active = inhibition above about 17%; inactive = the rest.

Amino acid sequences for entries named in this document (tags omitted).
UniProt P53779, whole entry: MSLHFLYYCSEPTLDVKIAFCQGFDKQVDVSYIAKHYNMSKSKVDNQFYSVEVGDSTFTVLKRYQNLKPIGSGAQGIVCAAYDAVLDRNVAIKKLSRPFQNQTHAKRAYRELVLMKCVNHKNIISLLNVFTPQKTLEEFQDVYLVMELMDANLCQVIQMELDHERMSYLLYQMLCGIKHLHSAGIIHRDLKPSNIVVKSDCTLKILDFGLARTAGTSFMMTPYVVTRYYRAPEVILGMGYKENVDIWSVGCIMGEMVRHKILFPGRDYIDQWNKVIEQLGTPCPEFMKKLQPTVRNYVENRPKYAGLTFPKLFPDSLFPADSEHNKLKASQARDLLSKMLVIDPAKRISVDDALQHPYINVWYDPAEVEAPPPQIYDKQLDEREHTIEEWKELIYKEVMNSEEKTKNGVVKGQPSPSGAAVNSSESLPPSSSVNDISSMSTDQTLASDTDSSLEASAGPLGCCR

target: Mitogen-activated protein kinase 10 (Homo sapiens) (UniProt P53779); experiment: inhibition of human JNK3 enzyme – biochemical, purified enzyme, primary screen (AID 746); conditions: purified JNK3 kinase activity, HTS; at 8 µM; stronger effect = higher value;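 also: 0% = DMSO and 100% = reference inhibitor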

SMILES | inhibition
CP(=O)(Nc1ccccc1F)Oc1ccccc1 (stereo unspecified) | inactive: 2.9%
CN(C)CCOC(=O)C(O)(c1ccccc1)C1CCCCC1 (stereo unspecified) | inactive: -8.48%
Cc1ccccc1NP(C)(=O)Nc1ccccc1C | inactive: 3.44%
CCOP(C)(=S)SCC(=O)NC(C)(CC)C(=O)O (stereo unspecified) | inactive: 0.53%
CCN(CC)CC(O)COC(=O)C(O)(c1ccccc1)C1CCCCC1 (stereo unspecified) | inactive: -3.77%
COc1ccccc1OP(C)(=O)Nc1c(C)n(C)n(-c2ccccc2)c1=O (stereo unspecified) | inactive: -2.13%
CP(=O)(Oc1ccccc1)N1CCOC1=O (stereo unspecified) | inactive: 3.48%
Cc1nc2ccc3ccccc3c2o1.O=[N+]([O-])c1cc([N+](=O)[O-])c(O)c([N+](=O)[O-])c1 | inactive: -13.5%
COc1ccccc1OP(C)(=O)Nc1ccc(C)c(C)c1 (stereo unspecified) | inactive: 0.69%
CP(=O)(Nc1ccccn1)Oc1ccccc1 (stereo unspecified) | inactive: 0.84%
COc1ccccc1OP(C)(=O)Nc1ccc(C)cc1 (stereo unspecified) | inactive: 5.42%
Cc1ccc(NP(C)(=O)Oc2ccccc2)c(C)c1 (stereo unspecified) | inactive: -9.71%
CP(=S)(Nn1cnnc1)Oc1ccccc1 (stereo unspecified) | inactive: -1.65%
CCOP(C)(=S)SCC(=O)NC(C)C(=O)O (stereo unspecified) | inactive: -6.22%
Cc1nc2ccc3ccccc3c2s1.O=[N+]([O-])c1cc([N+](=O)[O-])c(O)c([N+](=O)[O-])c1 | inactive: -2.38%
Cc1ccc(C)c(NP(C)(=O)Oc2ccccc2)c1 (stereo unspecified) | inactive: -3.88%
